Structures are written as SMILES. The entries are a selection whose mix differs from that of the whole data set. Records with an inconclusive call do not appear. Active and inactive are the calls of the source. Calls follow the shape of the dose curve; as a rule, active = well fitted curve in the direction sought with a large enough effect in the signal ratio (not every such curve was filed as active); inconclusive = small, poorly fitted or top-dose-only effect, or a change in a side signal; inactive = no such curve, though single readings can be large or run the other way; the % refers to the signal ratio.

Protein sequences, listed by entry. Tags and fused reporters are not part of them.
UniProt P97697, whole entry: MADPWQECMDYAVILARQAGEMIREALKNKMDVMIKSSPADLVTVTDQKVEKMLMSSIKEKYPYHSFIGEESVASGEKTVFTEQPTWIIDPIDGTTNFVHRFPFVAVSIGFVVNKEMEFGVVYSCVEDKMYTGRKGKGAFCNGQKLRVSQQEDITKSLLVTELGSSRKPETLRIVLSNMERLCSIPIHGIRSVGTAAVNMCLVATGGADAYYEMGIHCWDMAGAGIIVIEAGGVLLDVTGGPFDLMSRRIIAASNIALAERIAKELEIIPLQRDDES

In the test the target is Inositol monophosphatase 1 (Rattus norvegicus) (UniProt P97697). Description: qHTS Assay for Identifying the Cell-Membrane Permeable IMPase Inhibitors.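 Also: plate controls were DMSO basal wells for no effect and reference inhibitor wells for full effect; higher means more IMPase inhibition seen as more IP1 and lower FRET ratio.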 Particulars: CHO-M1 cells, HTRF TR-FRET ratio; at 46.1 µM (top of the series) unless noted. The text has this:
NCGC IMPase Assay Overview
Lithium has been widely used for the treatment of bipolar disorder. But lithium has a narrow therapeutic index and it can cause side effects such as thirst, weight gain, tremor, polyuria and memory problems. Although the mechanism for lithium action in treatment of bipolar disorder is still not fully understood, inhibition of inositol monophosphatase (IMPase) and the subsequent depletion of the inositol pool in living cells have been implicated as the primary therapeutic benefit of lithium therapy. Therefore, a selective IMPase inhibitor with reduced side effects might be a good drug candidate to replace lithium for the treatment of bipolar disorder. Several IMPase inhibitors have been discovered previously. However, they are not suitable for therapeutic use because of their poor cell membrane penetrability or oral bioavailability; the development of new cell-permeable IMPase inhibitors is needed.
IMPase catalyzes the hydrolysis of inositol-1-phosphate (IP1) to release free inositol. Binding of an agonist to a Gq coupled GPCR results in the activation of PLC, which hydrolyzes the PIP2 to form inositol-1,4,5-trisphosphate (IP3) and diacyl glycerol (DAG). While DAG activates protein kinase C (PKC), IP3 triggers the elevation of intracellular free Ca2+. The IP3 is very rapidly inactivated by hydrolysis to IP2, IP1 and then inositol by a series of enzymes including IMPase. Free inositols are used for synthesis of PI and thus start another inositol cycle.
To identify new cell-permeable IMPase inhibitors, we developed a cell-based IMPase assay in which the cytosolic IP1 is measured by a time-resolved fluorescence resonance energy transfer (TR-FRET) assay. In this assay, an IP1 specific antibody is used to detect the labeled IP1 tracer. When the cell lysate contains the elevated IP1 due to the inhibition of IMPase, the TR-FRET between the labeled antibody and IP1 tracer is disrupted resulting in a reduction in the total signal. Since the TR-FRET is used, this cell-based assay is a homogenous assay without cell wash and medium change that is suitable for assay miniaturization and HTS.
NCGC IMPase Assay Protocol Summary
A Chinese hamster ovary (CHO) cell line stably expressing the M1 receptor (CHO-M1) was obtained from ATCC and maintained in F-12 Kaighn's media (Invitrogen, Carlsbad, CA, 21127) supplemented with 10 % FBS, 100 units/ml penicillin, 100 ug/ml streptomycin and 250 ug/ml geneticin at 37C, 5% CO2 in a humidified atmosphere. Before the assay, aliquots of cells were frozen and stored at -135C. The assay was performed in 1536-well format. Data are reported for both the ratio of the two emission wavelengths, and also for the component 'donor' channel, Em2=620. […] AC50 values were determined from concentration-response data modeled with the standard Hill equation.
IMPase 1536-well assay protocol:
(1) Plate 4 ul/well (2000 cells) of cell suspension from frozen CHO-M1 Cells in white, tissue culture treated 1536-well plates that are cultured at 37C, 5 % CO2 for 16 to 30 hours.
(2) Add 23 nl/well of compound in DMSO solution. The final titration for each compound was between 0.6 nM and 46 uM.
(3) Add 1 ul of carbachol (50 uM in stimulation buffer containing10mM HEPES, 1mM CaCl2, 0.5 mM MgCl2, 4.2 mM KCl, 146 mM NaCl, 5.5 mM glucose, 50mM LiCl, pH 7.4.
(4) Incubation at 37C, 5 % CO2 for 30 min.
(5) Add 1 ul/well of d2-conjugated IP1 (d2-IP1) and 1 ul/well of Eu+ cryptate conjugated anti-IP1 antibody (Eu+-Ab) prepared in the cell lysis buffer, both from the IP-One kit (Cisbio, MA).
(6) Incubate at room temperature for 10 minutes.
(7) Detect the assay plate (Ex = 320, Em1 =665 and Em2 620) in a ViewLux plate reader.
inositol monophosphatase, IMPase, IMPase inhibitor, lithium, bipolar disorder, IP-One, HTRF, qHTS, NIH roadmap, NCGC
Note: In the gene ID and protein GI references for this assay, rat IMPase is referenced instead of hampster as hamster accession numbers were not available.
Take `Cc1ccc(C)c(NP(C)(=O)Oc2ccccc2)c1` (stereo not given): the inhibition (IP1 accumulation) is inactive: -1.62%.
As for `Cc1cc(C)cc(OP(C)(=O)Nc2ccccn2)c1` (stereo not given), the figure is inactive: 4.28%; as for `Cc1cc(C)cc(OP(C)(=O)Nc2ccc(C)cc2C)c1` (stereo not given), inactive: -6.41%.
To `COc1ccccc1OP(C)(=O)Nc1c(C)cccc1C` (stereo not given) belongs inactive: 2.2%; to `Cc1nc2ccc3ccccc3c2s1.O=[N+]([O-])c1cc([N+](=O)[O-])c(O)c([N+](=O)[O-])c1`, inactive: -1.16%.
For `CP(=O)(Nc1ccccn1)Oc1ccc(Cl)cc1` (stereo not given), the inhibition (IP1 accumulation) was inactive: 25.6%.
As for `CCOC(=O)c1ccc(NP(C)(=O)Oc2ccc(OC)cc2)cc1` (stereo not given), the figure is inactive: -0.648%.
With `CCOP(C)(=S)SCC(=O)NC(C)C(=O)O` (stereo not given), the inhibition (IP1 accumulation) was inactive: -4.78%.
As for `CP(=O)(NC(=O)Nc1ccccc1)Oc1ccccc1` (stereo not given), the figure is inactive: 0.52%; as for `Cc1cc(C)cc(OP(C)(=O)Nc2ccc(SC(F)(F)F)cc2)c1` (stereo not given), inactive: 1.35%.
As for `Cc1cccc(C)c1OP(C)(=O)Nc1ccc(SC(F)(F)F)cc1` (stereo not given), the figure is inactive: 10.2%; as for `CP(=S)(Nn1cnnc1)Oc1ccccc1` (stereo not given), inactive: -0.0011%; as for `COc1ccc(OP(C)(=O)Nc2cccc(F)c2)cc1` (stereo not given), inactive: 4.15%.
`COc1ccccc1OP(C)(=O)Nc1ccc(C)cc1` (stereo not given): the inhibition (IP1 accumulation) is inactive: -1.13%.
To `Cc1ccc(NP(C)(=O)Oc2ccccc2)c(C)c1` (stereo not given) belongs inactive: 6.42%.
To `CP(=O)(Nc1ccccn1)Oc1ccccc1` (stereo not given) belongs inactive: -1.05%; to `COc1ccccc1OP(C)(=O)Nc1ccc(C)cc1C` (stereo not given), inactive: 14.3%; to `CCc1ccc(OP(C)(=O)O)cc1`, inactive: 3.48%.
As for `Cc1c(NP(C)(=O)Oc2ccc(C(C)C)cc2)c(=O)n(-c2ccccc2)n1C` (stereo not given), the figure is inactive: 0.984%; as for `COc1ccc(OP(C)(=O)Nc2ccccn2)cc1` (stereo not given), inactive: -0.357%; as for `CN(C)CCOC(=O)C(O)(c1ccccc1)C1CCCC1` (stereo not given), inactive: 15.4%.
`Cc1nc2ccc3ccccc3c2o1.O=[N+]([O-])c1cc([N+](=O)[O-])c(O)c([N+](=O)[O-])c1`: the inhibition (IP1 accumulation) was inactive: 6.95%.
For the molecule `COc1ccccc1OP(C)(=O)Nc1ccc(C)c(C)c1` (stereo not given), the inhibition (IP1 accumulation) is inactive: 1.01%.
To `COc1ccc(OP(C)(=O)Nc2ccccc2Br)cc1` (stereo not given) belongs inactive: 1.82%; to `C/C1=C2N=C(/C=C3N=C(/C(C)=C4\[N-][C@@](C)([C@H]5N=C1[C@@](C)(CCC(=O)NC[C@H](C)OP(=O)([O-])O[C@@H]1[C@H](O)[C@H](n6cnc7cc(C)c(C)cc76)O[C@@H]1CO)[C@@H]5CC(N)=O)[C@](C)(CC(N)=O)[C@H]4CCC(N)=O)[C@@](C)(CC(N)=O)[C@@H]\3CCC(N)=O)C(C)(C)[C@@H]/2CCC(N)=O.[C-]#N.[Co+3]`, inactive: -11.2% [at 20.6 µM]; to `CP(=O)(OC12CC3CC(CC(C3)C1)C2)OC12CC3CC(CC(C3)C1)C2`, inactive: -5.86%.
To `CC(C)(C)c1ccc(OP(C)(=O)O)cc1` belongs inactive: 9.28%; to `CP(=O)(Nc1ccc(Cl)cc1)Oc1ccc(F)cc1` (stereo not given), inactive: 4.87%.
In the case of `COc1ccccc1OP(C)(=O)Nc1c(C)n(C)n(-c2ccccc2)c1=O` (stereo not given), the inhibition (IP1 accumulation) was inactive: 2.88%.
To `CP(=O)(Oc1ccccc1)N1CCOC1=O` (stereo not given) belongs inactive: 2.98%; to `CCN(CC)CC(O)COC(=O)C(O)(c1ccccc1)C1CCCCC1` (stereo not given), inactive: 10.3%; to `N#[O+].[C-]#N.[C-]#N.[C-]#N.[C-]#N.[C-]#N.[Fe+2].[Na+].[Na+]`, inactive: -2.3%.
As to `Cc1ccccc1NP(C)(=O)Nc1ccccc1C`, the inhibition (IP1 accumulation) is inactive: -6.06%.
As for `CP(=O)(Nc1ccc2c(c1)OCCO2)Oc1ccccc1` (stereo not given), the figure is inactive: -4.98%; as for `CCOP(C)(=S)SCC(=O)NC(C)(CC)C(=O)O` (stereo not given), inactive: -10.5% [at 1.84 µM]; as for `CN(C)CCOC(=O)C(O)(c1ccccc1)C1CCCCC1` (stereo not given), inactive: 35.1%.
As for `COc1ccc(OP(C)(=O)Nc2cccc(Br)c2)cc1` (stereo not given), the figure is inactive: 4.01%; as for `CP(=O)(Nc1ccccc1)Oc1ccc(F)cc1` (stereo not given), inactive: 0.65%; as for `CCN(CC)CCCOC(=O)C(O)(c1ccccc1)C1CCCCC1` (stereo not given), inactive: 18.2%.
As for `CP(=O)(Nc1ccccc1F)Oc1ccccc1` (stereo not given), the figure is inactive: -3.45%.

For the origin of these results see PubChem BioAssay AID901 (National Center for Advancing Translational Sciences (NCATS), 2007).
